According to PubChem BioAssay AID652025 (National Center for Advancing Translational Sciences (NCATS), 2013):
Only a part is listed here, and it is no random draw. The source made the active and inactive calls. No stated cut-off is given here; in the data, active means activation above about 50%; inconclusive means mostly about 30% to 49%; inactive means weaker than that.

Assay: qHTS of IL-2 Activators; further: 0% is about no effect
Details: IL-2 activation reporter assay, cell-based qHTS; hits give high values; in transgenic mouse T cells; stimulated with anti-CD3/CD4/CD28 beads
Text: The adaptive immune response against any infectious agent begins with the activation of an antigen specific T cell. This relatively rare and inert ("naive") T cell undergoes a massive proliferative expansion and differentiation process to generate sufficient number of potent pathogen-specific effector T cells. The effector T cells fight the infection by making cytokines and helping other cells to become fully armed as well. If any naive T cell has antigen receptors (TCRs) that can be activated by self peptides, then a variety of regulatory mechanisms kick in to prevent this cell from performing to its full potential. These processes collectively constitute the phenomenon of immunological tolerance and their failure leads to autoimmunity. One arm of tolerance involves generation of biochemical negative feedback downstream of the TCR (tuning). This is especially relevant to self antigens present in the body over long periods of time (chronic), which form the bulk of our proteome. The negative feedback serves to tune the TCR signaling, such that the ambient antigenic stimulation is nullified intracellularly. Unfortunately, this critical machinery serves as a target for chronic viral, bacterial and parasitic infections (as well as tumors), which can evade a robust immune response, simply by allowing T cells to tune down their signaling to pathogen or malignancy derived antigens. As such, disrupting the tuning in such cases would allow the tolerant T cell to function again and deliver a robust effector response.
If a therapeutic can restore responsiveness to the tuned down T cell, even for a short time, they could combat the pathogen without any additional immunization. To that end, we have developed a sensitive HTS T cell based assay based on IL-2. This assay will be screened against the Molecular Libraries Small Molecule Repository (MLSMR) to find small molecules that could elicit this response.
NIH Chemical Genomics Center [NCGC]
NIH Molecular Libraries Probe Centers Network [MLPCN]
Assay Submitter (PI): Ron Schwartz, NIAID
4 microL (750 cells/well) of unstimulated transgenic mouse T cells (columns 1-3,5-48) are dispensed into Aurora LoBase, black clear-bottom 1536-well assay plates; column 4 receives an identical concentration of transgenic memory T cells as a non-tolerant control. Compounds are then transferred via Kalypsys pin tool equipped with 1536-pin array (10 nL slotted pins, V&P Scientific, San Diego, CA). Following addition of compound and a 60 minute incubation, 1 microL of bead stimulation solution ((0.04 micron Fluospheres (Life technologies, CA) coated with 10ug/ml each anti-CD3 and anti-CD4 (clones 2C11 and GK1.5, BD Biosciences, CA) and mixed with 1ug/ml anti-CD28 (clone PV-1, BD biosciences, CA)). columns 2-48) is added to stimulate the IL-2 response pathway; media is instead added to column 1 as an unstimulated control, while PMA/ionomycin (Sigma Aldrich, MO) is added to column 3 as a control for IL-2 tolerance bypass. The plates are then incubated at 37 degrees C for 18 hours. EGFP and DsRed signal are then detected using an Acumen eX3 Explorer fluorescent plate cytometer. All cells are dispensed in cell media containing EHAA (Quality Biologicals, MD), RPMI (Quality Biologicals, MD), Glutamine (Life Technologies, CA), Penicillin/Streptomycin (Quality Biologicals, MD), 2-ME (Sigma Aldrich, MO) and 10% FBS (Gemini Bioproducts, CA) .

| SMILES | activation |
| --- | --- |
| CSc1ccc(Nc2c([N+](=O)[O-])cc([N+](=O)[O-])cc2[N+](=O)[O-])cc1 | inactive: -2.45% |
| O=C(OC1CN2CCC1CC2)c1cccc([N+](=O)[O-])c1 (stereo not given) | inactive: -2.47% |
| CCOC(=O)c1ccc(NC(=O)C(C)(CCl)SC)cc1 (stereo not given) | inactive: -0.816% |
| CCC(C)N(CC(C)C)C(=S)SC(NC(C)=O)C(Cl)(Cl)Cl (stereo not given) | inactive: -0.358% |
| COC(=O)C1(C)COP(=O)(N2CCCC2)OC1 (stereo not given) | inactive: -0.281% |
| COP1(=S)c2c(C)nn(CCC#N)c2N=C(c2ccc(F)cc2)N1C (stereo not given) | inactive: -2.53% |
| O=C(O)C(=O)c1ccc(N(CCCl)CCCl)cc1 | inactive: -2.3% |
| O=C(Nc1ccncc1[N+](=O)[O-])c1ccc([N+](=O)[O-])cc1[N+](=O)[O-] | inactive: 0.308% |
| O=C(COc1ccccc1)OC1CN2CCC1CC2 (stereo not given) | inactive: -1.89% |
| CCOC(=O)Nc1cccc([As](=O)(O)O)c1 | inactive: 0.166% |
| Cc1cc(SC(NC=O)C(Cl)(Cl)Cl)ncn1 (stereo not given) | inactive: 0.953% |
| O=P(Nc1ccccn1)(c1cccc2ccccc12)c1cccc2ccccc12 | inactive: 0.299% |
| O=[N+]([O-])c1ccc(Nc2ccc(Oc3ccc([N+](=O)[O-])cc3[N+](=O)[O-])cc2)c([N+](=O)[O-])c1 | inactive: -0.442% |
| O=C(O)C(O)c1ccc(N(CCCl)CCCl)cc1 (stereo not given) | inactive: -2.43% |
| CCOC(=O)Nc1ccc([As](=O)(O)O)c(O)c1 | inactive: 0.213% |
| CC1CCNP(=O)(N(CCCl)CCCl)O1 (stereo not given) | inactive: 1.31% |
| COP(=O)(OC)N1CC1c1ccccc1 (stereo not given) | inactive: -1.74% |
| Cc1cc(SC(NC(=O)c2ccccc2)C(Cl)(Cl)Cl)nc(C(C)C)n1 (stereo not given) | inactive: -0.409% |
| CCCCOc1ccc(C(=O)NCC2(N3CCCCC3)CCCCC2)cc1OC | inactive: -0.787% |
| ClCCSc1nnc(-c2cccnc2)o1 | inactive: -0.9% |
| CC(C)c1ccc(OP(=O)(Nc2ccccn2)Oc2ccccc2F)cc1 (stereo not given) | inactive: 0.54% |
| COC(=O)C1(C)COP(=O)(N2CCCCCC2)OC1 (stereo not given) | inactive: -4.04% |
| O=[N+]([O-])c1cc([N+](=O)[O-])c(-c2ccn[nH]2)s1 | inactive: 0.334% |
| CCN(CC)C(=S)SC(NC=O)C(Cl)(Cl)Cl (stereo not given) | inactive: 1.43% |
| O=C(OC1CN2CCC1CC2)c1cccc2[nH]cnc12 (stereo not given) | inactive: 0.565% |

| SMILES | activation |
| --- | --- |
| CC(C)NC(=O)NP(=O)(Oc1ccccc1)Oc1ccccc1 | inactive: -1.04% |
| COc1cc(C(=O)NCC2(N3CCOCC3)CCCCC2)ccc1OCC(C)C | inactive: -0.246% |
| O=[N+]([O-])c1ccc(-c2cc([N+](=O)[O-])c(O)c([N+](=O)[O-])c2)cc1 | inactive: -0.338% |
| C[As](=O)(O)c1cccc(C(=O)O)c1 | inactive: -0.879% |
| O=[As](O)(c1ccc(O)cc1)c1ccccc1O | inactive: 4.44% |
| Cc1ccc(OP(=O)(Nc2ccc([N+](=O)[O-])cn2)Oc2ccc(C)cc2)cc1 | inactive: -0.169% |
| [N-]=[N+]=NC1CCCCC1NC(=O)c1cc([N+](=O)[O-])cc([N+](=O)[O-])c1 (stereo not given) | inactive: 0.292% |
| Cc1ccc2nc3c(c(C)c2c1)CC(C(Cl)Cl)S3 (stereo not given) | inactive: -2.86% |
| O=[N+]([O-])c1cc(Oc2ccc([N+](=O)[O-])cc2C(F)(F)F)cc([N+](=O)[O-])c1 | inactive: -0.462% |
| COc1ccc(N/C(=N/P(=O)(N2CCOCC2)N2CCOCC2)N2CCOCC2)cc1 | inactive: 2.03% |
| Cc1c2c(nc3ccccc13)SC(C(Cl)Cl)C2 (stereo not given) | inactive: 0.21% |
| Cc1cc(=O)[nH]c(N[N+](=O)[O-])n1 | inactive: -2.12% |
| O=C(OC1CN2CCC1CC2)C12CC3CC(CC(C3)C1)C2 (stereo not given) | inactive: -1.75% |
| O=P1(N(CCCl)CCCl)Nc2ccccc2N1 | inactive: -0.446% |
| O=P1(N(CCCl)CCCl)OCCCN1CCCl (stereo not given) | inactive: -0.568% |
| COc1cc(I)ccc1[As](=O)(O)O | inactive: -0.483% |
| COc1ccc2nc(NP(=O)(c3ccccc3)c3ccccc3)sc2c1 | inactive: -1.23% |
| O=C(NC(Sc1ccncn1)C(Cl)(Cl)Cl)c1ccccc1 (stereo not given) | inactive: -0.817% |
| Oc1ccccc1CNc1ccccn1 | inactive: -1.58% |
| CC(C)CC(=O)NC(Sc1ccc(Cl)cc1)C(Cl)(Cl)Cl (stereo not given) | inactive: -2.35% |
| Nc1cc(N)c2nonc2c1[N+](=O)[O-] | inactive: -5.53% |
| O=[N+]([O-])C1C(O)C(O)C([N+](=O)[O-])C(O)C1O (stereo not given) | inactive: -0.19% |
| Cc1ccc(N/C(=N/P(=O)(N2CCOCC2)N2CCOCC2)N2CCOCC2)cc1 | inactive: 0.152% |
| CN(C(=O)Cc1ccc(Cl)c(Cl)c1)[C@H]1CCCC[C@H]1N1CCCC1 | inactive: 0.0783% |
| NC(=O)c1cc([N+](=O)[O-])cc([N+](=O)[O-])c1N | inactive: 0.96% |
